# Test results from PubChem BioAssay AID2557 (NMMLSC, 2010).
# Protein sequences, listed by entry. Tags and fused reporters are not part of them.
# UniProt P13612, whole entry, looked up: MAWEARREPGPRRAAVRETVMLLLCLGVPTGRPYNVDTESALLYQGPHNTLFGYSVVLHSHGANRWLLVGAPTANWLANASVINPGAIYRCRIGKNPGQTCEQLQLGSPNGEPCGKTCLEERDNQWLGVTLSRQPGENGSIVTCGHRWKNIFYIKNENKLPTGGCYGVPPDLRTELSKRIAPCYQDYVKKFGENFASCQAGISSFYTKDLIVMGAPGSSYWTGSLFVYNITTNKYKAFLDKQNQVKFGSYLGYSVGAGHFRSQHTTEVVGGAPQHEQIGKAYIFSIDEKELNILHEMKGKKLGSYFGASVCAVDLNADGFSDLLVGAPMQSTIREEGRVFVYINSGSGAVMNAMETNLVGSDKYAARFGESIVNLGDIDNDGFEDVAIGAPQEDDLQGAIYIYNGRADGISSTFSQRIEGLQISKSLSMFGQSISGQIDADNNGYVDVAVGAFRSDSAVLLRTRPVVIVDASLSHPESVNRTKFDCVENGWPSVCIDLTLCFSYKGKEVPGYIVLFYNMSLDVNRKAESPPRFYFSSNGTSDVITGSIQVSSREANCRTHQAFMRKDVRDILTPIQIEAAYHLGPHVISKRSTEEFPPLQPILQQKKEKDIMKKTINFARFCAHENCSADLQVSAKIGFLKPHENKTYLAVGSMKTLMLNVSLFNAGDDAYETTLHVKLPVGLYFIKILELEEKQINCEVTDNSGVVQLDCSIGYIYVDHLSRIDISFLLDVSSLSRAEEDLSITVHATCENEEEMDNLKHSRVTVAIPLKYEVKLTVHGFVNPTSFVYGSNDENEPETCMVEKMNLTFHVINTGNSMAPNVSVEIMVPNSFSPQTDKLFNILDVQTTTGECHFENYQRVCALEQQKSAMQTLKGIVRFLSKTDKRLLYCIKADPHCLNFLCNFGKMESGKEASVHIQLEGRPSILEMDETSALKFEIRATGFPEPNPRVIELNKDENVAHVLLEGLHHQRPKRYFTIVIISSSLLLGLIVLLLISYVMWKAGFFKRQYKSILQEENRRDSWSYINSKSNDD
# The entries are a selection whose mix differs from that of the whole data set. The source made the active and inactive calls. Rule as the data show it: active = inhibition above about 50%; inactive = the rest.
# Target: Integrin alpha-4 (Homo sapiens) (UniProt P13612)
# Assay: VLA-4 integrin binding inhibitors – MLPCN library, flow cytometry, VLA-4 expressing cells, VLA-4 allosteric modulator project, primary screen (AID 2557)
# Details: ligand binding flow cytometry, active compounds read high, about 7 µM as worked out from the volumes in the protocol
row,Compound,inhibition
1,ClCCSc1nnc(-c2cccnc2)o1,inactive: 0.72%
2,O=[N+]([O-])c1cc([N+](=O)[O-])c(-c2ccn[nH]2)s1,inactive: -14.4%
3,CC(C)NC(=O)NP(=O)(Oc1ccccc1)Oc1ccccc1,inactive: 12.2%
4,CCN(CC)C(=S)SC(NC=O)C(Cl)(Cl)Cl (stereo unspecified),inactive: 6.93%
5,COc1cc(C(=O)NCC2(N3CCOCC3)CCCCC2)ccc1OCC(C)C,inactive: 9.65%
6,O=[As](O)(c1ccc(O)cc1)c1ccccc1O,inactive: -32.8%
7,C[As](=O)(O)c1cccc(C(=O)O)c1,inactive: -10.1%
8,Cc1ccc2nc3c(c(C)c2c1)CC(C(Cl)Cl)S3 (stereo unspecified),inactive: 31.9%
9,Cc1ccc(OP(=O)(Nc2ccc([N+](=O)[O-])cn2)Oc2ccc(C)cc2)cc1,inactive: 6.01%
10,CCOC(=O)Nc1cccc([As](=O)(O)O)c1,inactive: 5.24%
11,O=[N+]([O-])c1ccc(Nc2ccc(Oc3ccc([N+](=O)[O-])cc3[N+](=O)[O-])cc2)c([N+](=O)[O-])c1,inactive: -6.29%
12,Cc1cc(SC(NC=O)C(Cl)(Cl)Cl)ncn1 (stereo unspecified),inactive: 9.29%
13,O=P(Nc1ccccn1)(c1cccc2ccccc12)c1cccc2ccccc12,inactive: 7.2%
14,CCOC(=O)Nc1ccc([As](=O)(O)O)c(O)c1,inactive: -0.95%
15,Cc1cc(SC(NC(=O)c2ccccc2)C(Cl)(Cl)Cl)nc(C(C)C)n1 (stereo unspecified),inactive: -5.62%
16,CCOC(=O)c1ccc(NC(=O)C(C)(CCl)SC)cc1 (stereo unspecified),inactive: -1.74%
17,O=C(OC1CN2CCC1CC2)c1cccc([N+](=O)[O-])c1 (stereo unspecified),inactive: 11.9%
18,CCC(C)N(CC(C)C)C(=S)SC(NC(C)=O)C(Cl)(Cl)Cl (stereo unspecified),inactive: 6.88%
19,COP1(=S)c2c(C)nn(CCC#N)c2N=C(c2ccc(F)cc2)N1C (stereo unspecified),inactive: -9.75%
20,O=C(Nc1ccncc1[N+](=O)[O-])c1ccc([N+](=O)[O-])cc1[N+](=O)[O-],inactive: 34.7%
21,O=C(COc1ccccc1)OC1CN2CCC1CC2 (stereo unspecified),inactive: -6.94%
